Results reported in PMC9191634, “Molecular determinants of inhibition of the human proton channel hHv1 by the designer peptide C6 and a bivalent derivative” (Proceedings of the National Academy of Sciences of the …, 2022).

Tests used:
Assay in all cases: other; +40 mV
Settings in all cases: designed binder
[1] = target: hHv1-E192C (human) (UniProt Q96D96)
[2] = target: hHv1-E196A (Homo sapiens)
[3] = target: hHv1-L200A (Homo sapiens)
[4] = target: hHv1-I183C (Homo sapiens)
[5] = target: hHv1-H193C (human) (UniProt Q96D96)
[6] = target: hHv1-L184C (Homo sapiens)
[7] = target: hHv1-D185C (human) (UniProt Q96D96)
[8] = target: hHv1-Q194A (Homo sapiens)
[9] = target: hHv1-V187A (Homo sapiens)
[10] = target: hHv1-L188C (Homo sapiens)
[11] = target: hHv1-I186C (Homo sapiens)
[12] = target: hHv1-L189A (Homo sapiens)
[13] = target: hHv1-Q191C (Homo sapiens)
[14] = target: hHv1-F195C (Homo sapiens)
[15] = target: hHv1-E196C (human) (UniProt Q96D96)
[16] = target: hHv1-Q194C (Homo sapiens)
[17] = target: hHv1-F190C (Homo sapiens)
[18] = target: hHv1-V187A (Homo sapiens); remark: listed apart in the source
[19] = target: hHv1-Q194A (Homo sapiens); remark: listed apart in the source
[20] = target: hHv1-E196A (Homo sapiens); remark: listed apart in the source

## C6 peptide
[1]
  Ki: 14100 nM
[2]
  Ki: 1540 nM
[3]
  Ki: 1600 nM
[4]
  Ki: 34 nM
[5]
  Ki: 1630 nM
[6]
  Ki: 682 nM
[7]
  Ki: 7 nM
[8]
  Ki: 240 nM
[9]
  Ki: 3300 nM
[10]
  Ki: 335 nM
[11]
  Ki: 43 nM
[12]
  Ki: 26 nM
[13]
  Ki: 338 nM
[14]
  Ki: 109 nM
[15]
  Ki: 1820 nM
[16]
  Ki: 183 nM
[17]
  Ki: 19 nM
[18]
  Ki: 3350 nM
[19]
  Ki: 244 nM
[20]
  Ki: 1500 nM
